From US20120328692A1, “POTENT D-PEPTIDE ANTAGONISTS OF MDM2 AND MDMX FOR ANTICANCER THERAPY” (UNIVERSITY OF MARYLAND, BALTIMORE, priority 2011, published 2012)

Tests used:
[1] = system: U87 cells; assay: Western blot of p53 responsive genes in U87 cells; format: cell-based, human; conditions: Western blotting, 12 h after treatment
[2] = system: U251 cells; assay: Western blot of p53 responsive genes in U251 cells; format: cell-based, human; conditions: Western blotting, 12 h after treatment
[3] = system: U87 xenografts (subcutaneous); assay: subcutaneous U87 xenograft model; conditions: similar in vivo experiments, unpublished results
[4] = system: human glioma cell line U87 (wild type p53); assay: MTS cell viability assay, U87 cells; format: cell-based; conditions: similar in vitro experiments, unpublished results

## CC(C)C[C@@H](NC(=O)[C@@H](CC(C)C)NC(=O)[C@@H](CCCCN)NC(=O)[C@@H](CCC(=O)O)NC(=O)[C@@H](CC(C)C)NC(=O)[C@@H](CC(N)=O)NC(=O)[C@@H](C)NC(=O)[C@@H](Cc1ccc(O)cc1)NC(=O)[C@@H](Cc1c[nH]c2ccccc12)NC(=O)[C@@H](CC(N)=O)NC(=O)[C@H](N)[C@H](C)O)C(=O)N[C@H](CCCNC(=N)N)C(=O)O [^DPMI-α]
[1]
  expression of p53 responsive genes MDM2 and p21: dose-dependent expression
[2]
  expression of p53 responsive genes MDM2 and p21: not in U251 cells

## CC(C)C[C@@H](NC(=O)[C@@H](CC(C)C)NC(=O)[C@@H](CCCCN)NC(=O)[C@@H](CCC(=O)O)NC(=O)[C@@H](Cc1ccccc1)NC(=O)[C@@H](CC(N)=O)NC(=O)[C@@H](C)NC(=O)[C@@H](Cc1ccc(O)cc1)NC(=O)[C@@H](Cc1c[nH]c2ccccc12)NC(=O)[C@@H](C)NC(=O)[C@H](N)[C@H](C)O)C(=O)N[C@H](CCCNC(=N)N)C(=O)O [^DPMI-β]
[3]
  effectiveness compared with ^DPMI-α in vivo: more effective than ^DPMI-α
[4]
  effectiveness compared with ^DPMI-α in vitro: more effective than ^DPMI-α
